# Laboratory results as given in PubChem BioAssay AID602396 (The Scripps Research Institute Molecular Screening Center, 2012).
# Amino acid sequences for entries named in this document (tags omitted).
# UniProt O00482, whole entry, looked up: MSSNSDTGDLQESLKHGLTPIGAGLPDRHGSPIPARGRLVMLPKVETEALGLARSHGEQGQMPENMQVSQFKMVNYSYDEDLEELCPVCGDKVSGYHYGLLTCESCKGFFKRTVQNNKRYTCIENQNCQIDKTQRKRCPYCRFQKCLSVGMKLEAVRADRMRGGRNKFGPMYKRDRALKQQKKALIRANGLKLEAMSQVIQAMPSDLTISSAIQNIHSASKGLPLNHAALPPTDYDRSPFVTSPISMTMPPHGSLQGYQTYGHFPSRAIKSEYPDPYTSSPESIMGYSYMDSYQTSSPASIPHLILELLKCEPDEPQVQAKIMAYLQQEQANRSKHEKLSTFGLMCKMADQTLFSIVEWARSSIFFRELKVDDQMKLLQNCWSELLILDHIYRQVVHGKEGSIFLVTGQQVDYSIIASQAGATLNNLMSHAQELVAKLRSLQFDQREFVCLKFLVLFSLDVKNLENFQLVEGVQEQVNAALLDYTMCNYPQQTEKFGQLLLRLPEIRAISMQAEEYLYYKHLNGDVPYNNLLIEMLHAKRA
# The list shows a part of the results, in another mix than the full data. Active and inactive are the calls of the source.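 Rule for the calls: active = inhibition above the mean inhibition of all tested compounds plus 3 SD (cut at about 73% in these data); inactive = the rest.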
# Target: Nuclear receptor subfamily 5 group A member 2 (Homo sapiens) (UniProt O00482)
# Assay: LRH-1 (NR5A2) inverse agonists, primary screen, cell-based, luminescence, HEK293T, StAR-luciferase reporter (AID 602396);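 note: 0% = DMSO wells and 100% = reporter-only cells lacking LRH-1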
# Conditions: LRH-1 transfected, 24 h, at 3.6 µM, stronger effect = higher value
row,SMILES,inhibition
1,COc1cc(C2NCCC3(OCCO3)C2(C)C)cc(OC)c1OC (stereo unspecified),inactive: -0.54%
2,CCOP(=O)(Nc1cccc2ccccc12)OCC,inactive: -0.1%
3,Nc1cccc2c([As](=O)(O)O)cccc12,inactive: -28.2%
4,Cc1ccc(NCCc2c([N+](=O)[O-])cc([N+](=O)[O-])cc2[N+](=O)[O-])cc1,inactive: -1.35%
5,CCCOP(=S)(Nc1nc(N)cc(=O)[nH]1)OCCC,inactive: -8.87%
6,O=[As](O)(c1cccc(O)c1)c1cccc(O)c1,inactive: 3.74%
7,Cc1cccc(OCC(=O)OC2CN3CCC2CC3)c1 (stereo unspecified),inactive: -16.9%
8,O=C(OC1CN2CCC1CC2)c1ccc(Cl)cc1 (stereo unspecified),inactive: -4.15%
9,COc1cc(C(=O)NCC2(N3CCOCC3)CCCCC2)cc(Cl)c1OC(C)C,inactive: 0.23%
10,O=[As](O)(O)c1cccnc1,inactive: 3.77%
11,CS(=O)(=O)c1ccc(Cl)c(NC(=O)COC(=O)C(O)(c2ccccc2)c2ccccc2)c1,inactive: 11.4%
12,N#CCCN(C(=O)COC(=O)C(O)(c1ccccc1)c1ccccc1)c1ccc(F)cc1,inactive: 1.29%
13,CCOP1(=S)c2c(C)nn(CCC#N)c2N=C(c2ccc(F)cc2)N1C (stereo unspecified),inactive: -23.2%
14,CN(C(=O)Cc1ccccc1)[C@@H]1CC[C@]2(CCCO2)C[C@H]1N1CCCC1,inactive: -11.3%
15,CN(C)C(=O)c1cc([N+](=O)[O-])cc2c1-c1c(cc([N+](=O)[O-])cc1[N+](=O)[O-])C2=O,inactive: 7.77%
16,O=[N+]([O-])c1ccc2c(c1)nnn2O,inactive: 7.95%
17,CN(C(=O)Cc1ccc(Cl)c(Cl)c1)[C@H]1CC[C@@]2(CCCO2)C[C@@H]1N1CCCC1,inactive: -12%
18,NC(=O)Nc1ccc([As](=O)(O)O)cc1,inactive: -25%
19,O=C(O)COc1ccc([As](=O)(O)O)cc1[N+](=O)[O-],inactive: 13.6%
20,Nc1ccccc1[As](=O)(O)c1ccccc1,inactive: -4.81%
21,CCOP1(=S)c2c(C)nn(CCC#N)c2N=C(c2ccccc2F)N1C (stereo unspecified),inactive: -1.94%
22,O=P(Nc1nccs1)(c1ccccc1)c1nc2ccccc2s1 (stereo unspecified),inactive: 14.3%
23,O=P(Nc1nccs1)(Oc1ccccc1)Oc1ccccc1,inactive: 8.12%
24,CS(=O)(=O)c1cc([N+](=O)[O-])c2no[n+]([O-])c2c1,inactive: -9.68%
25,Nc1cccc([As](=O)(O)c2ccccc2)c1,inactive: 3.87%
26,NS(=O)(=O)c1cccc(NC(=O)COC(=O)C(O)(c2ccccc2)c2ccccc2)c1,inactive: 14.8%

row,SMILES,inhibition
1,O=P1(Nc2ccc(Br)cn2)COc2ccccc2OC1,inactive: -1.91%
2,O=[As](O)(c1cccs1)c1cccs1,inactive: 16.8%
3,Cc1ccc(OCC(=O)OC2CN3CCC2CC3)cc1 (stereo unspecified),inactive: -8.64%
4,Cc1ccc(S(=O)(=O)N(CCCN)CCCc2c(C)nc(N)[nH]c2=O)cc1,inactive: -38.7%
5,O=P1(Nc2ncccn2)COc2ccccc2OC1,inactive: 3.12%
6,CN(C)C1(CNC(=O)c2ccc(S(C)(=O)=O)cc2)CCCCC1,inactive: 11.2%
7,O=C(/C=C/c1ccccc1)OC1CN2CCC1CC2 (stereo unspecified),inactive: 10.7%
8,CCCC1OP(=O)(Nc2ccccc2)OCC1CC (stereo unspecified),inactive: 19.8%
9,Cc1nn(-c2ccccc2)c2c1P(=O)(N1CCOCC1)N(C)C(c1ccccc1)=N2 (stereo unspecified),inactive: -13.6%
10,Cc1ccc(C(=O)OC2CN3CCC2CC3)cc1 (stereo unspecified),inactive: -15.6%
11,CC1CCC(C(C)C)C(OP(=O)(Nc2ccccn2)c2ccccc2)C1 (stereo unspecified),inactive: 15.1%
12,CN(C(=O)Cc1ccc(Cl)c(Cl)c1)[C@@H]1CCCC[C@H]1N1CCCC1,inactive: -30.9%
13,CC(C)/C=N\N=C(\N)N[N+](=O)[O-],inactive: -7.09%
14,CC1(CBr)Cn2c(nc3ccccc3c2=O)S1 (stereo unspecified),inactive: -4.91%
15,COc1ccccc1CNC(=O)COC(=O)C(O)(c1ccccc1)c1ccccc1,inactive: -15.6%
16,Clc1n[nH]nc1-c1nn[nH][15n]1,inactive: 11.7%
17,O=P1(N(CCCl)CCCl)NCCC(C(F)(F)F)O1 (stereo unspecified),inactive: 3.84%
18,CC(C)(C)C(=O)NC(Sc1ncccn1)C(Cl)(Cl)Cl (stereo unspecified),inactive: 15.4%
19,CCC1=CC2Cc3nc4ccc(Cl)cc4c(N)c3C(C1)C2 (stereo unspecified),inactive: 9.48%
20,O=P1(Nc2ccccn2)COc2ccccc2OC1,inactive: 3.64%
21,CCOP(=O)(NC(=NC(C)c1ccccc1)NC(C)c1ccccc1)OCC (stereo unspecified),inactive: 8.33%
22,CN(CCCl)Cc1cc(Cl)c(NC2=NCCN2)c(Cl)c1,inactive: 7.88%
23,CCOP(=O)(Nc1ccc(C)cn1)OCC,inactive: 2.25%
24,CCC(C)N(CC(C)C)C(=S)SC(NC(C)=O)C(Cl)(Cl)Cl (stereo unspecified),inactive: -4.87%
25,O=C(OC1CN2CCC1CC2)c1cccc([N+](=O)[O-])c1 (stereo unspecified),inactive: 4.69%
26,CSc1ccc(Nc2c([N+](=O)[O-])cc([N+](=O)[O-])cc2[N+](=O)[O-])cc1,inactive: 28.2%

row,SMILES,inhibition
1,CCOC(=O)c1ccc(NC(=O)C(C)(CCl)SC)cc1 (stereo unspecified),inactive: -41.4%
2,O=C(O)C(=O)c1ccc(N(CCCl)CCCl)cc1,inactive: 7.02%
3,O=C(COc1ccccc1)OC1CN2CCC1CC2 (stereo unspecified),inactive: 5.02%
4,O=C(Nc1ccncc1[N+](=O)[O-])c1ccc([N+](=O)[O-])cc1[N+](=O)[O-],inactive: 20.6%
5,COP1(=S)c2c(C)nn(CCC#N)c2N=C(c2ccc(F)cc2)N1C (stereo unspecified),inactive: 17%
6,COC(=O)C1(C)COP(=O)(N2CCCC2)OC1 (stereo unspecified),inactive: 8.75%
7,Cc1cc(SC(NC=O)C(Cl)(Cl)Cl)ncn1 (stereo unspecified),inactive: -12.1%
8,O=P(Nc1ccccn1)(c1cccc2ccccc12)c1cccc2ccccc12,inactive: 12.2%
9,O=[N+]([O-])c1ccc(Nc2ccc(Oc3ccc([N+](=O)[O-])cc3[N+](=O)[O-])cc2)c([N+](=O)[O-])c1,inactive: -13.4%
10,CCOC(=O)Nc1cccc([As](=O)(O)O)c1,inactive: -11.4%
11,COP(=O)(OC)N1CC1c1ccccc1 (stereo unspecified),inactive: 9.75%
12,CCCCOc1ccc(C(=O)NCC2(N3CCCCC3)CCCCC2)cc1OC,inactive: -49.4%
13,Cc1cc(SC(NC(=O)c2ccccc2)C(Cl)(Cl)Cl)nc(C(C)C)n1 (stereo unspecified),inactive: 19.3%
14,O=C(O)C(O)c1ccc(N(CCCl)CCCl)cc1 (stereo unspecified),inactive: 13.6%
15,CCOC(=O)Nc1ccc([As](=O)(O)O)c(O)c1,inactive: 10%
16,CC1CCNP(=O)(N(CCCl)CCCl)O1 (stereo unspecified),inactive: -9.71%
17,O=C(OC1CN2CCC1CC2)c1cccc2[nH]cnc12 (stereo unspecified),inactive: -25%
18,CCN(CC)C(=S)SC(NC=O)C(Cl)(Cl)Cl (stereo unspecified),inactive: 6.78%
19,CC(C)NC(=O)NP(=O)(Oc1ccccc1)Oc1ccccc1,inactive: 0.91%
20,O=[N+]([O-])c1cc([N+](=O)[O-])c(-c2ccn[nH]2)s1,inactive: 33.4%
21,ClCCSc1nnc(-c2cccnc2)o1,inactive: -15.3%
22,CC(C)c1ccc(OP(=O)(Nc2ccccn2)Oc2ccccc2F)cc1 (stereo unspecified),inactive: 7.46%
23,COC(=O)C1(C)COP(=O)(N2CCCCCC2)OC1 (stereo unspecified),inactive: -5.73%
24,Cc1ccc(OP(=O)(Nc2ccc([N+](=O)[O-])cn2)Oc2ccc(C)cc2)cc1,inactive: -1.89%
25,[N-]=[N+]=NC1CCCCC1NC(=O)c1cc([N+](=O)[O-])cc([N+](=O)[O-])c1 (stereo unspecified),inactive: -4.87%
26,Cc1ccc2nc3c(c(C)c2c1)CC(C(Cl)Cl)S3 (stereo unspecified),inactive: -55.6%

row,SMILES,inhibition
1,C[As](=O)(O)c1cccc(C(=O)O)c1,inactive: -3.51%
2,O=[As](O)(c1ccc(O)cc1)c1ccccc1O,inactive: 3.09%
3,COc1cc(C(=O)NCC2(N3CCOCC3)CCCCC2)ccc1OCC(C)C,inactive: 3.42%
4,O=[N+]([O-])c1ccc(-c2cc([N+](=O)[O-])c(O)c([N+](=O)[O-])c2)cc1,inactive: 1.14%
5,O=[N+]([O-])c1cc(Oc2ccc([N+](=O)[O-])cc2C(F)(F)F)cc([N+](=O)[O-])c1,inactive: 24.7%
6,COc1ccc(N/C(=N/P(=O)(N2CCOCC2)N2CCOCC2)N2CCOCC2)cc1,inactive: 22.6%
7,O=P1(N(CCCl)CCCl)OCCCN1CCCl (stereo unspecified),inactive: -16.7%
8,O=P1(N(CCCl)CCCl)Nc2ccccc2N1,inactive: -109%
9,COc1ccc2nc(NP(=O)(c3ccccc3)c3ccccc3)sc2c1,inactive: 14.9%
10,COc1cc(I)ccc1[As](=O)(O)O,inactive: -15%
11,Cc1c2c(nc3ccccc13)SC(C(Cl)Cl)C2 (stereo unspecified),inactive: -8.42%
12,O=C(OC1CN2CCC1CC2)C12CC3CC(CC(C3)C1)C2 (stereo unspecified),inactive: -2.45%
13,Cc1cc(=O)[nH]c(N[N+](=O)[O-])n1,inactive: 1.08%
14,O=[N+]([O-])C1C(O)C(O)C([N+](=O)[O-])C(O)C1O (stereo unspecified),inactive: 25.9%
15,Oc1ccccc1CNc1ccccn1,inactive: 2.23%
16,O=C(NC(Sc1ccncn1)C(Cl)(Cl)Cl)c1ccccc1 (stereo unspecified),inactive: -3.37%
17,CC(C)CC(=O)NC(Sc1ccc(Cl)cc1)C(Cl)(Cl)Cl (stereo unspecified),inactive: 16.1%
18,Nc1cc(N)c2nonc2c1[N+](=O)[O-],inactive: -2.15%
19,Clc1ccc(Cl)c(NC2=NCC(CBr)S2)c1 (stereo unspecified),inactive: 14.5%
20,CN1CCCC(OC(=O)C(c2ccccc2)c2ccccc2)C1 (stereo unspecified),inactive: 11.2%
21,COc1ccccc1OP(=O)(Nc1ccc(C)cn1)Oc1ccccc1OC,inactive: 4.86%
22,Cc1ccc(OP(=O)(Nc2nccs2)Oc2ccc(C)cc2)cc1,inactive: 7.85%
23,CN(C(=O)Cc1ccc(Cl)c(Cl)c1)[C@H]1CCCC[C@H]1N1CCCC1,inactive: 12%
